Target: FLT1/VEGFR1 (Homo sapiens, UniProt P17948)
Assay: biochemical
Details: read-out: % Inhibition FLT1/VEGFR1

Protein sequences, listed by entry. Tags and fused reporters are not part of them. Residues count along the entry.
UniProt P17948, 27-1338: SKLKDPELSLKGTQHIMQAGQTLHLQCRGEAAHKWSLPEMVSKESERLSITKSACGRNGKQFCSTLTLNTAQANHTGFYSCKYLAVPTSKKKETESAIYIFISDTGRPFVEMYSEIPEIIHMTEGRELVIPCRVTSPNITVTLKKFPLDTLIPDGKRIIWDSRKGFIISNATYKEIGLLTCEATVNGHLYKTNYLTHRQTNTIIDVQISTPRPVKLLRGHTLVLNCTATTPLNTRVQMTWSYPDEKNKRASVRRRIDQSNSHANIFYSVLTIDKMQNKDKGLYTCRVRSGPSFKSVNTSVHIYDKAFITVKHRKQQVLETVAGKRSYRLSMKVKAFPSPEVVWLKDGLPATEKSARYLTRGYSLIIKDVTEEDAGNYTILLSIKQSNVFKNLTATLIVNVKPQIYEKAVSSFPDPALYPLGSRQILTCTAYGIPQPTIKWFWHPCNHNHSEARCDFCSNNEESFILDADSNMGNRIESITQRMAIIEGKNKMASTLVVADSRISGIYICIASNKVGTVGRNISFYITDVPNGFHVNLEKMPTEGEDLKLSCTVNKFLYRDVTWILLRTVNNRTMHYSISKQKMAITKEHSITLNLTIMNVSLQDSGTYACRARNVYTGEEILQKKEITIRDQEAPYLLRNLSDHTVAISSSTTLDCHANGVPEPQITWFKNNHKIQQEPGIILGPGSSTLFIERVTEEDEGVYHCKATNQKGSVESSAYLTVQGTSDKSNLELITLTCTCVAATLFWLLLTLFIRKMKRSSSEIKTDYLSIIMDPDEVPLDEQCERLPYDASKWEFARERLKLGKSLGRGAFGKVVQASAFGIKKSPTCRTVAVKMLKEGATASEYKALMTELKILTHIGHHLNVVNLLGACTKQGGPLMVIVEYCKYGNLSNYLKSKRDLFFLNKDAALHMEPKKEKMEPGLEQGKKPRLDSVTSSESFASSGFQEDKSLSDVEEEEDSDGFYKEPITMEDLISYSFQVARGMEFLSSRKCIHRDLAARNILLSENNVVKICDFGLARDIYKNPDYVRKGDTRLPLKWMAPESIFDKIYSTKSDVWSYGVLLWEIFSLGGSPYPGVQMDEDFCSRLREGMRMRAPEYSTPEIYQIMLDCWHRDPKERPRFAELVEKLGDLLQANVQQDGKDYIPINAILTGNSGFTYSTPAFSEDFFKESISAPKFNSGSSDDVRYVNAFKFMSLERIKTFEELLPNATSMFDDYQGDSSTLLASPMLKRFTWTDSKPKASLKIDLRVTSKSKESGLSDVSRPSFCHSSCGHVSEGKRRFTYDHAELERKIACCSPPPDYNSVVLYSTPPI

`CCN1CCN(Cc2cc(C(=O)Nc3ccc4[nH]c(-c5ccc6cn[nH]c6c5)nc4c3)cc(C(F)(F)F)c2)CC1` [8r, N-(2-(1H-Indazol-6-yl)-1H-benzo[d]imidazol-5-yl)-3-((4-ethylpiperazin-1-yl)methyl)-5-(trifluoromethyl)benzamide] was tested, and the inhibition at 1 µM was 6%.
